Laboratory results taken from PMC7127853 (Bioorganic & Medicinal Chemistry, 2011).

System: human cytomegalovirus (HCMV) strain AD-169
Assay: Antiviral assay, HCMV AD-169 in HEL cells
Assay type: cell-based

Nc1ncnc2c1ncn2CCOCP(=O)(O)OCCOCCCCCCCCCCO [Compound 7, 2-[(10-Hydroxydecyl)oxy]ethyl ester of 9-[2-(phosphonomethoxy)ethyl]adenine]
Activity against CMV (in words): totally inactive
